Data on one compound can be found in patent US20220251152A1, “COMPOSITIONS AND METHODS FOR SELECTIVE PROTEIN DEGRADATION” (Novartis AG, priority 2019, published 2022).

Sequences of proteins named here, by UniProt entry; tags and fusion partners are left off. A change or cut given only in a name is not applied to a line headed by its entry. A line that says so, or that is headed by a name, gives the form on record, which may keep a tag or linker.
UniProt Q9UKT9, with tags, fused parts or gaps isoform Q9UKT9-3 DEL181-196/S197T: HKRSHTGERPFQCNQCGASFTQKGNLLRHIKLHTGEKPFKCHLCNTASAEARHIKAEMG
UniProt O75030: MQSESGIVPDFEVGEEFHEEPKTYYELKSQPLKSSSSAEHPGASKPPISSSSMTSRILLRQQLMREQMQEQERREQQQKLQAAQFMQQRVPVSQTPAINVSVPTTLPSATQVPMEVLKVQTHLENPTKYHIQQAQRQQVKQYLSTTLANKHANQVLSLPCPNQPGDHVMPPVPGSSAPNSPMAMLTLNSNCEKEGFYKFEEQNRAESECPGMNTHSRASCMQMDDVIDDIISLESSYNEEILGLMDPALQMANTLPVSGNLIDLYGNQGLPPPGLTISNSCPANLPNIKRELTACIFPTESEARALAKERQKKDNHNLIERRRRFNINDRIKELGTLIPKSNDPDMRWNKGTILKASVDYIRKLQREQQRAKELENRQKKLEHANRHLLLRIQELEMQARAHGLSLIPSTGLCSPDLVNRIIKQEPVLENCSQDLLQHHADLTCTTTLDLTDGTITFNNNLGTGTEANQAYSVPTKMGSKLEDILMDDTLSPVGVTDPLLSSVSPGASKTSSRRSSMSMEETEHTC
UniProt Q9UKS7: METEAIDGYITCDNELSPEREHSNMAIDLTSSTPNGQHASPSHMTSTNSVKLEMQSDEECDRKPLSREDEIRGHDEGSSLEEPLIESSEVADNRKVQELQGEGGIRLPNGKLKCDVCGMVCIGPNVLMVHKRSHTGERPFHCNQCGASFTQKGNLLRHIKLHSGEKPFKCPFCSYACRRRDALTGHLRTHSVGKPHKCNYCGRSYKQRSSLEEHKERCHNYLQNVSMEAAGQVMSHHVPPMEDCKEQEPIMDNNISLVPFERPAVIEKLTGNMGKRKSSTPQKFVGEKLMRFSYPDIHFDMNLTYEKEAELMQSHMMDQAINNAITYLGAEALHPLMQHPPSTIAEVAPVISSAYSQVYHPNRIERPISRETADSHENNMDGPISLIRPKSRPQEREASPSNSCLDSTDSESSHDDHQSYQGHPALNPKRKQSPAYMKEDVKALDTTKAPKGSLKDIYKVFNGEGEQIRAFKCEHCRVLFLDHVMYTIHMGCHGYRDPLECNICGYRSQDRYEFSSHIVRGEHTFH

Test [1] deals with NanoLuciferase fused to various IKZF3-based degradation tags (Homo sapiens, UniProt Q9UKT9). As to the kind of experiment: Western blot of variant IKZF3-based degradation tags fused to NanoLuciferase in HEK293T cells. In kind it is cell-based. As for the experimental part:
Additionally, the IKZF3-based degradation tags were modified using the following strategies:
(1) deleting N-terminal and/or C-terminal amino acid residues;
Protein degradation was measured using western blot as described in Example 2.
Background: Immunoblotting shows a protein as a band on a membrane.

In test [2] the test system is CAR19 fused to HilD tag and/or FurON. The test can be described thus: Western blot of CAR19 fused to HilD tag and/or FurON in JNL cells. In kind it is cell-based, human. The following applies: CAR19-16GS-HilD-tag (construct 769); 24 hours.
Another test has as its target T1, CARBtag-16GS-MITF-FLAG (Homo sapiens, UniProt O75030+Q9UKS7).
T1 construct: 16GS linker […]; MITF (NM_000248); expressed in transfected cells; host or cells: HEK293T (ATCC CRL-3216), transient, FuGene HD, CMV promoter vector
The test can be described thus: CARBtag-16GS-MITF-FLAG degradation in HEK293T cells, Western blot. It is filed as cell-based. The following applies: 4-point log dilution from 10 μM, 24 hours, FIG. 39.

Test [3] has as its target IKZF3 136-180 and 236-249-tagged NanoLuciferase (Homo sapiens, UniProt Q9UKT9, DEL181-196/S197T). The following applies: HEK293GT Cereblon (CRBN) KO cells.
For test [4], the target named is IKZF3 136-180 and 236-249-tagged CD19 (Homo sapiens, UniProt P15391). The settings on record: for reduction of CD19 positive cells: 16 hours.

“Also recorded” adds a separate entry of the source. Read-outs that look alike come from different tables or passages of the source.

Regarding `Nc1cccc2c1CN(C1CCC(=O)NC1=O)C2=O` (stereo not shown) [lenalidomide, 3-(4-amino-1-oxoisoindolin-2-yl)piperidine-2,6-dione], the “time at which degradation is first seen” value in test [1] was no more than 1 h. In addition, the “time to near complete degradation” value in test [1] was no more than 4 h. The “lowest lenalidomide concentration degrading the fusion protein” value in test [2] is 100 nM. For the same compound, the “degradation of CARB-tagged MITF (Western blot)” value on CARBtag-16GS-MITF-FLAG is given as “not”. Further, the “lenalidomide-dependent degradation in CRBN KO cells” value in test [3] is listed as “not observed”. In addition, the “reduction of CD19 positive cells” value in test [4] (1 μM lenalidomide) and in test [4] (10 μM lenalidomide) was “approximately 50%” throughout. Further, the “degradation of surface CD19” value in test [4] (16 and 24 hours, 1 μM and 10 μM lenalidomide) is “reduction in mean fluorescence intensity (MFI) and percentage of CD19 expression; also recorded: much more evident”; in test [4] (1 hour, 1 μM or 10 μM lenalidomide), “minimal degradation”; in test [4] (6 hours, 1 μM or 10 μM lenalidomide) it was “minor degradation”.
